The text below walks through data of patent US20100330029A1, “Cancer Treatments with Radiation and Immunocytokines” (Merck Patent GmbH, priority 2008, published 2010).

For assay [1], the system named is Lewis lung carcinoma (LLC). Briefly: tumor growth assay, Lewis lung carcinoma model. Format: in vivo, mice. To be noted: LLC-8, LLC-9. On the procedure: LL/2 (LLC) cells, a murine Lewis lung carcinoma cell line, were maintained in DMEM, supplemented with 10% heat-inactivated fetal bovine serum, L-glutamine, penicillin/streptomycin (Life Technologies, Inc.) at 37° C. and 7% CO2. LLC cells were implanted in female C57BL/6 mice.
For the tumor growth assay, cells growing exponentially in culture were injected as a single cell suspension in 100 μl of PBS intramuscularly into the upper legs of the mice. In experiments using a dual tumor model, cells were also implanted in the flanks of the mice. After tumors had become established, treatment was initiated (day 0). In Experiment LLC-7, tumors were implanted in the flank until established. […] Thereafter, animal survival was monitored. […] Mice were treated on days 0 to 6 and day 17, and tumor size was measured twice weekly for the duration of the study.
Tumors were measured with calipers in three dimensions for the duration of the experiment. Tumor volumes were calculated using the equation: […]
Data from the subcutaneous tumor growth assay are presented in graphic form depicting average and standard deviations (sd) of tumor volumes or weights during and after dosing. Animal weight changes were determined by subtracting the animal weight at each time point from the initial body weight, on day 0, then dividing by the initial body weight and multiplying by 100. […]

Assay [2] relates to Lewis Lung Carcinoma cells. Briefly: rechallenge of cured mice with Lewis Lung Carcinoma cells. Format: in vivo. To be noted: LLC-8, LLC-9; combination with chemoradiation. The procedure:
The ability of irradiation followed by intravenous administration of the exemplary immunocytokine EMD521873 to generate a long lasting immune response was tested by rechallenging cured mice with tumor cells. Mice bearing Lewis Lung Carcinoma tumors were originally treated with either fractionated radiation (3.6 Gy/d, d0-4) plus cisplatin (4 mg/kg, d0), EMD521873 alone (5 mg/kg, d7, 8, 9), or the combination of EMD521873 plus chemoradiation. The number of complete responses was determined and then those mice that had achieved complete remissions for greater than 50 days were rechallenged by s.c. injection of LLC cells followed by monitoring of tumor growth compared to naïve mice that had not previously been treated.

Consider “IL-2: exemplary cytokine IL-2 used as comparator with chemoradiation [reference compound]”, for which the “animals with complete response” value in assay [1] (combination with chemoradiation) is given as 2/6. Moreover, the T/C in assay [1] (day 21, combination with chemoradiation (cisplatin 4 mg/kg d0 plus 3.6 Gy/d d0-4)) is listed as 0.09. Further, the “mice with complete responses immune to rechallenge with LLC cells” value in assay [2] was “neither of the 2”.
